According to patent US20160032014A1:

Experiments:
[1] = target: human PCSK9 (self-cleaved, mature, secreted PCSK9 comprising amino acids 31 to 692 of SEQ ID NO: 2) (human) (UniProt Q8NBP7); assay: SPR pH 5.5
[2] = target: human PCSK9 (self-cleaved, mature, secreted PCSK9 comprising amino acids 31 to 692 of SEQ ID NO: 2) (human) (UniProt Q8NBP7); assay: SPR pH 7.4
[3] = target: human PCSK9 (self-cleaved, mature, secreted PCSK9 comprising amino acids 31 to 692 of SEQ ID NO: 2) (human) (UniProt Q8NBP7); assay: SPR primary screen pH 7.4
[4] = target: cynomolgus PCSK9 (cynomolgus); assay: SPR second screen pH 7.4
[5] = target: human PCSK9 (self-cleaved, mature, secreted PCSK9 comprising amino acids 31 to 692 of SEQ ID NO: 2) (human) (UniProt Q8NBP7); assay: SPR second screen pH 7.4

Row | Substance | pH 5.5 estimated complex half life [1] [s] | pH 5.5 estimated half life [1] [s] | Kd [2] | koff [2] | kon [2] | Kd [3] [nM] | koff [3] [s⁻¹] | kon [3] [M⁻¹ s⁻¹] | Kd [4] [nM] | koff [4] [s⁻¹] | kon [4] [M⁻¹ s⁻¹] | Kd [5] [nM] | koff [5] [s⁻¹] | kon [5] [M⁻¹ s⁻¹]
1 | 8A3 variant HC I107M / LC with S at 57 (parental LC) (antibody) | 450 | 450 | 0.129 nM and 0.191 nM and 0.152 nM | 5.27e-05 s⁻¹ and 8.1e-05 s⁻¹ and 6.47e-05 s⁻¹ | 408000 M⁻¹ s⁻¹ and 425000 M⁻¹ s⁻¹ and 426000 M⁻¹ s⁻¹ |  |  |  |  |  |  |  |  | 
2 | SS-15758 (antibody) |  |  |  |  |  | 0.947 | 0.000234 | 247000 | 0.998 | 0.000497 | 498000 | 0.704 | 0.000188 | 268000

Values joined by “and” are separate entries in the source; they are usually repeats but may differ in a detail not shown here. Equal entries are not always repeated.
